## Measured affinities in a library of Ab-14 heavy chain variants

From the AlphaSeq antibody data of Li et al. 2023 (doi:10.1038/s41467-023-39022-2), copy in the FLAb collection.

Target peptide (SARS-CoV-2 spike, HR2 region): PDVDLGDISGINAS

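The parent was found by panning a naive human phage display library on the peptide. The variants were designed computationally from a first round of random CDR variants and then made and measured. Several design methods are mixed in this list. The scFvs were displayed on barcoded MATa yeast, the peptide on MATalpha yeast. Mating (16 h, 30 °C) was followed by selection of diploids and sequencing of their barcodes. Read counts were normalised to the haploid input and turned into Kd by a linear fit to BCL2-family pairs of known affinity, for each replicate. Mating was done six times.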

Parent scFv Ab-14: VH joined to VL by a 15-residue (Gly4Ser)3 linker. Changes lie in the heavy chain CDRs alone.
VH: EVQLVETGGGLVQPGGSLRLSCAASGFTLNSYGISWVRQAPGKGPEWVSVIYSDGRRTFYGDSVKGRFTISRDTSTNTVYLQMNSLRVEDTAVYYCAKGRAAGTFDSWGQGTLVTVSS
VL: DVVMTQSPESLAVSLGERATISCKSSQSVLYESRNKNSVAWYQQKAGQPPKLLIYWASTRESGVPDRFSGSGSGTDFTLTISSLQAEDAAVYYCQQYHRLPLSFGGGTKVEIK

Each variant is given by its three heavy chain CDRs, as the data file delimits them; those of the parent are GFTLNSYGIS, VIYSDGRRTFYGDSVK, GRAAGTFDS.
Each Kd is an estimate from the mating assay, the geometric mean of the replicates in which the pair was seen; lower is stronger.
Where no diploid with the target was found in any replicate, the entry reads "nd": below detection, most likely a poor binder, though not proof of it.
The authors' rule: three or more of the six replicates give a measured affinity, fewer mean a poor binder.
The range of this assay differs from that of the first round, and the authors advise against merging the two.
A sequence that the file lists under several names has all its replicates pooled.
The parent sequence was in this pool as ten entries: three were never detected, three once, and four in most replicates, with averages from 2.2 nM to 240 nM.
Nonspecific signal, from three strains lacking the peptide, appeared in 1% of pairings of all heavy chain designs, centred on 120 nM (5% of these signals below 7.0 nM); values are not corrected for it.

CDR-H1 | CDR-H2 | CDR-H3 | Kd (apparent) | detected
GFDLNEYGIS | VIYADGSRTFYSDSVK | GQTAGTFDV | 1.3 nM | 6 of 6
GFDLDQYGIS | VIYADGRRTAYANDVK | GKYAGSFLD | 13 nM | 6 of 6
GFDLNEYGIS | VIYSDGRRTFYGDSVK | GKEAGTFDS | 7.4 nM | 6 of 6
GFDLNEYGIS | VIYADGKRTAYIDSVK | GEIAGTFDV | 580 pM | 6 of 6
GFTLNDHGIS | VIYSDGRRTFYGDSVK | GRLAGTFDS | 250 nM | 2 of 6
GFGLNSYGIS | VIYSDGRRTFYGDSVK | GLAAGTTDS | nd | 0 of 6
GFDLNEYGIS | VIYADGRRTFYKDSVK | GSNAGTFDM | 400 pM | 6 of 6
GFTLNQYGIS | VIYADGRRTFYEDSVK | GRAAGTFDD | 1.2 nM | 6 of 6
GFNLNEYGIS | VIYADGRRTAYADSVK | GQIAGTFIV | 3.5 nM | 6 of 6
GFDLNEFGIS | VIYADGSRASYADKVK | GLNGGQLIV | nd | 0 of 6
GFKLNSYGIS | VIYSDGRRTFYDDQVK | GQLAGTFDS | 55 nM | 2 of 6
GFDLNEYGIS | VIYADGQRTFYADSVK | GNNAGTFIS | 210 nM | 4 of 6
GADLNEYGIS | VIYADGRRVEYENSFK | GWVAGTFDS | 17 nM | 1 of 6
GFNLDQYGIS | VIYADGQRTQYANDVK | GHYAGSMLS | nd | 0 of 6
GIDLEKYGIS | VIYADGMRASYADAVK | GRLSGTFYI | nd | 0 of 6
GFDLDEQGIS | VIYADGVRCSYKDKVK | GAGSGVIDM | nd | 0 of 6
GESLEEYGIS | VIYADGMRNAYVSKVK | GTNSGDFTI | 6.1 nM | 5 of 6
GFSLNTYGIS | VIYSDGRRTFYGDSVK | GQAAGTFDS | 53 nM | 6 of 6
GFDLNEYGIS | VIYADGRRTFYSDSVK | GTVAGTFDV | 320 pM | 6 of 6
GFTLNSYGIS | VIYSDGRKTFYSDSVK | GRAAGTFDS | 13 nM | 1 of 6
GFTLNSFGIS | VIYSDGRRTFYGDSVK | GAAAGTFDS | 13 nM | 5 of 6
GFNLNSYGIS | VIYSDGRRTFYHDSVK | GRQAGTFDS | 1.1 nM | 1 of 6
GFDLDEYGIS | VIYADGRRTAYIDSVK | GNVAGTFDV | 2.2 nM | 6 of 6
GFTLESYGIS | VIYSDGRRTFYGDSVK | GRAKGTFDS | nd | 0 of 6
GFTLNFYGIS | VIYADPRRTFYGDSVK | GRAAGTNKS | nd | 0 of 6
GFKLDEYGIS | VIYADGIRTVYADDVK | GLLKGHSLT | nd | 0 of 6
GFELNSYGIS | VIYADGRRTFYGDSVK | GRMAGTFDS | 1.4 nM | 12 of 12
GFNLNSYGIS | VIYSDGRRTFYADSVK | GQVAGTFDS | 3.5 nM | 6 of 6
GYDLVEYGIS | VIYADGQRTMYADTVK | GHHGGIIDM | nd | 0 of 6
GFTLSQYGIS | VIYSDGRRTFYGDSVK | MDAAGTFDS | 65 nM | 5 of 6
GFDLNSYGIS | VIYSDGRRTFYGDSVK | GVNAGTFDS | 1.1 nM | 6 of 6
GFTLNSYGIS | VIYHDGRRTFYDDSVK | GQNAGTFDS | 54 nM | 3 of 6
GVTLNSYGIS | VIYSDGRRTFYGDSVK | GTAAGTFDS | 200 nM | 1 of 6
GFDLNSYGIS | VIYSDGRRAFYGDSVK | GRTAGTFDS | 2.0 nM | 6 of 6
GFTLNSYGIS | VIYSDGRRTFYDDPVK | GQLAGTFDS | 78 nM | 3 of 6
GFDLNSYGIG | VIYSDGRRTFYGDSVK | GRAAGWFNS | 1.8 µM | 1 of 6
GFELNSYGIS | VIYSDGRRTFYTDSVK | GRNAGTFDS | 79 nM | 5 of 6
GFDLNEYGIS | VIYADGIRTFYTDSVK | GEVAGTFDV | 680 pM | 6 of 6
GFSLDEYGIS | VIYADGLRSKYQDKVK | GELALSGDT | 150 nM | 1 of 6
GFEINSYGIS | VIYADGRRTFYGDSVK | GEAAGTFDM | 2.5 nM | 6 of 6
GFDLNEYGIS | VIYADGKRTAYTDSVK | GNVAGTFDM | 1.1 nM | 6 of 6
GFSLNEYGIS | VIYSDGRRTFYGDSVK | GRTAGTFDA | nd | 0 of 6
GFDLDEYGIS | VIYADGQRTAYTDSVK | GNQAGTFDV | 810 pM | 6 of 6
GFTLNDYGIS | VIYSDGRRTFYGDSVK | GRMAGTFES | 95 nM | 5 of 6
GFDLNSYGIS | VIYSDGRRTFYGDSVK | GRAAGSFDS | nd | 0 of 6
GFTLNSYGIS | VIYSDGRRTQYGDSVK | GRAQGTFDS | nd | 0 of 6
GFDLDEYGIS | VIYADGMRTYYADSVK | GNVAGTFDQ | 480 pM | 6 of 6
GFDLNEYGIS | VIYADGRRTFYSDSVK | GQTAGTFDI | 540 pM | 6 of 6
GFDLNEYGIS | VIYADGRRTAYTDSVK | GHVAGTFKL | 420 pM | 6 of 6
GFTLNDYGIS | VIYSDGRRTFYGDSVK | GPEAGTFDS | nd | 0 of 6
GFDLQEYGIS | VIYADGTREAYSEKVK | GQLAGYFSF | nd | 0 of 6
GENINEYGIS | VIYADGRRTAYAEDVK | GQSGGTIDT | nd | 0 of 6
GFDLNSYGIS | VIYSDGRRSFYADSVK | GREAGTFDS | 680 pM | 6 of 6
GFGLSEYGIS | VIYADGMRTSYDDSIK | GALAGTFDE | 5.0 nM | 2 of 6
GFELNSYGIS | VIYSDGRRTFYADRVK | GRTAGTFDS | nd | 0 of 6
GESLEEYGIS | VIYADGIREQYVDDVK | GEQGGYFVT | nd | 0 of 6
GFTLNSYGIS | VIYSDGRRTFYGDSVK | GRTAGTFTV | nd | 0 of 6
GEDLMEYGIS | VIYADGVRFSYIDDVK | GQSTGFLDV | nd | 0 of 6
GFTLNEYGIS | VIYSDGRRTFYGDSVK | GRAAETFDV | nd | 0 of 6
GFDLDEYGIS | VIYADGRRTAYADSVK | GSNAGTFDL | 470 pM | 6 of 6
GFHLNSYGIS | VIYSDGRRTFYHDSVK | GEAAGTFDS | 10 nM | 6 of 6
GFTLNSYGIS | VIYSDGRRTFYGDSVK | EQAAGTFDS | 72 nM | 4 of 6
GFTLNSYGIS | VIYSDGRRTFYGDAVK | GRAAGTFDS | 350 nM | 5 of 6
GFYLNDYGIS | VIYSDGRRTFYKDSVK | GRTAGTFDS | 5.4 nM | 6 of 6
GFSLNSYGIS | VIYSDGRRTFYGDSVK | GRTAGTFDT | 1.5 nM | 6 of 6
GFDLNSYGIS | VIYSDGRRTFYGDTVK | GRTAGTFDS | 6.8 nM | 5 of 6
GFTLNEYGIS | VIYSDGRRTFYTDSVK | GRSAGTFTS | 130 nM | 1 of 6
GFDLEEYGIS | VIYADGKRTAYADSVK | GNNAGTFDV | 520 pM | 6 of 6
GFDLNEYGIS | VIYADGVRTAYADSVK | GNVAGTFDQ | 270 pM | 6 of 6

The 4 strongest on average among those seen in every replicate, once more:

{"CDR-H1": "GFDLNEYGIS", "CDR-H2": "VIYADGVRTAYADSVK", "CDR-H3": "GNVAGTFDQ", "Kd (apparent)": "270 pM", "detected": "6 of 6"}
{"CDR-H1": "GFDLNEYGIS", "CDR-H2": "VIYADGRRTFYSDSVK", "CDR-H3": "GTVAGTFDV", "Kd (apparent)": "320 pM", "detected": "6 of 6"}
{"CDR-H1": "GFDLNEYGIS", "CDR-H2": "VIYADGRRTFYKDSVK", "CDR-H3": "GSNAGTFDM", "Kd (apparent)": "400 pM", "detected": "6 of 6"}
{"CDR-H1": "GFDLNEYGIS", "CDR-H2": "VIYADGRRTAYTDSVK", "CDR-H3": "GHVAGTFKL", "Kd (apparent)": "420 pM", "detected": "6 of 6"}